Results as given in patent US4757079A, “Anti-hypertensive piperidine compounds” (Dynamac Corporaton, priority 1986, dated 1988).
Where a name gives a salt, the structure may show the parent alone.

System: release of acetylcholine
Settings: 17.5 mg/L; in the presence of DFP; stimulation at 1 Hz

CN1CCC(/C=C/c2cccc3ccccc23)CC1 [B-120, 1-methyl-4-(1-naphthylvinyl)piperidine hydrochloride]
release of acetylcholine normally elicited by stimulation: completely blocked
